Where a chain is given by its changes, count along the chain named.
How the values were obtained:
Format in all cases: biochemical
wt NAE = molecular target: T1, wt NAE (Homo sapiens, UniProt Q8TBC4); experiment: Pyrophosphate (ATP-PPi) exchange assay
T1 construct: His; made in house; host or cells: E. coli Rosetta (DE3), co-expression

Sequences of proteins named here, by UniProt entry; tags and fusion partners are left off.
UniProt Q8TBC4, whole entry A171D: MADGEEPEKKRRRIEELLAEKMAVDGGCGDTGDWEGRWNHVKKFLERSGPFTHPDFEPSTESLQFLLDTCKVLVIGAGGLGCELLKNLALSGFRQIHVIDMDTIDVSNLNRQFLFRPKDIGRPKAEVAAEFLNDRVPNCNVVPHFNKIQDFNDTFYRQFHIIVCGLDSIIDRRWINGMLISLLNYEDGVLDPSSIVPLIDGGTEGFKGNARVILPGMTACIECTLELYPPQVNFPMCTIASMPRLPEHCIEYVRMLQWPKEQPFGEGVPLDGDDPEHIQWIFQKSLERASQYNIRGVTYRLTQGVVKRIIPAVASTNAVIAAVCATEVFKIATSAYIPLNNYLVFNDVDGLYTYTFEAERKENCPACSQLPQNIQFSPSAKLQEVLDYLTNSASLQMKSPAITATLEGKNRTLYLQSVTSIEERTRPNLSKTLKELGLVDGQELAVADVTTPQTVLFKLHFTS
UniProt Q8TBC4, whole entry N209K: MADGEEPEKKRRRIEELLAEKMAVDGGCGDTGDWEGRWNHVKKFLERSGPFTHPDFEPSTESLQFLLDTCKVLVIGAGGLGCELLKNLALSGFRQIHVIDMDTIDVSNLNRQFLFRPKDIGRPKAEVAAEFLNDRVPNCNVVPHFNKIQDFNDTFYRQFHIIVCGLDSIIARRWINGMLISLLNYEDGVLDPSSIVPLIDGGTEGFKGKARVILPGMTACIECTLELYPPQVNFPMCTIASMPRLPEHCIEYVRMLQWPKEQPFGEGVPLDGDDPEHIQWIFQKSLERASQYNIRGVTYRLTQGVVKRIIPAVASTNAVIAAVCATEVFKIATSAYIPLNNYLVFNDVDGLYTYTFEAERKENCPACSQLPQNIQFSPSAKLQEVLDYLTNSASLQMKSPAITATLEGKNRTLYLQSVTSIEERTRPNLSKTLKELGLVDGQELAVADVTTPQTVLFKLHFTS
UniProt Q8TBC4, whole entry A171T: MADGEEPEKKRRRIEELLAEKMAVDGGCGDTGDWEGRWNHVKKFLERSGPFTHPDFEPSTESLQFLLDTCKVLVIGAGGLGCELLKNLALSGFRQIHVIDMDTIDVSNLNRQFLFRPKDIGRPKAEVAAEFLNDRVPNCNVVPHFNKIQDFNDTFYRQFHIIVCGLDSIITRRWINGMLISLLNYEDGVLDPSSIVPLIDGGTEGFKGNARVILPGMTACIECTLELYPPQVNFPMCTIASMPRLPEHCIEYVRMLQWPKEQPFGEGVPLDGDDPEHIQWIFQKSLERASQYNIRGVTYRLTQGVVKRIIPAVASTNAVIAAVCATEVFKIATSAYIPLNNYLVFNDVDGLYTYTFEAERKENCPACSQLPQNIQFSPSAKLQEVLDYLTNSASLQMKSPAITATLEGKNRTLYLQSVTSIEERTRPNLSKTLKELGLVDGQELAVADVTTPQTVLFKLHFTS
UniProt Q8TBC4, whole entry G201V: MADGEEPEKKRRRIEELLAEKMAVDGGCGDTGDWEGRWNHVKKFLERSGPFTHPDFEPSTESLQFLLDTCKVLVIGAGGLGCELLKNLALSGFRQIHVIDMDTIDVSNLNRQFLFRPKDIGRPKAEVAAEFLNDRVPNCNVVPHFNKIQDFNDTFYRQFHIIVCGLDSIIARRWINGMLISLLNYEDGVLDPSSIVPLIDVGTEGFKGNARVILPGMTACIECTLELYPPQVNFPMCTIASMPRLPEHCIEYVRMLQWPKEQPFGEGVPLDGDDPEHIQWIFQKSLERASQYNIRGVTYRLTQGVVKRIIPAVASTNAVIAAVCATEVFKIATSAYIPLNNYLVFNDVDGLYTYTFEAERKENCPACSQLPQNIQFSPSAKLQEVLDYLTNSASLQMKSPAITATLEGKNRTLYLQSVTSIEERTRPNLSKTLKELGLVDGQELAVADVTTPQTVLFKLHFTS

A171D NAEβ mutant NAE = molecular target: T2, A171D NAEβ mutant NAE (Homo sapiens, UniProt Q8TBC4, A171D); experiment: Pyrophosphate (ATP-PPi) exchange assay; details: A171D NAE 5 nM, 1 mM ATP
T2 construct: made in house; host or cells: Sf9 insect cells, co-infection

N209K NAEβ mutant NAE = molecular target: T3, N209K NAEβ mutant NAE (Homo sapiens, UniProt Q8TBC4, N209K); experiment: Pyrophosphate (ATP-PPi) exchange assay
T3 construct: His; made in house; host or cells: E. coli Rosetta (DE3), co-expression

A573D UBA6 = molecular target: T4, A573D UBA6 (Homo sapiens, UniProt A0AVT1, A573D); experiment: UBA6 pyrophosphate exchange assay; details: A573D UBA6 5 nM, 1 mM ATP, 4 μM ubiquitin
T4 construct: His6 (N); made in house; host or cells: Sf9 insect cells (baculovirus, single infection)
T4 sequence (A0AVT1 1-1052 A573D): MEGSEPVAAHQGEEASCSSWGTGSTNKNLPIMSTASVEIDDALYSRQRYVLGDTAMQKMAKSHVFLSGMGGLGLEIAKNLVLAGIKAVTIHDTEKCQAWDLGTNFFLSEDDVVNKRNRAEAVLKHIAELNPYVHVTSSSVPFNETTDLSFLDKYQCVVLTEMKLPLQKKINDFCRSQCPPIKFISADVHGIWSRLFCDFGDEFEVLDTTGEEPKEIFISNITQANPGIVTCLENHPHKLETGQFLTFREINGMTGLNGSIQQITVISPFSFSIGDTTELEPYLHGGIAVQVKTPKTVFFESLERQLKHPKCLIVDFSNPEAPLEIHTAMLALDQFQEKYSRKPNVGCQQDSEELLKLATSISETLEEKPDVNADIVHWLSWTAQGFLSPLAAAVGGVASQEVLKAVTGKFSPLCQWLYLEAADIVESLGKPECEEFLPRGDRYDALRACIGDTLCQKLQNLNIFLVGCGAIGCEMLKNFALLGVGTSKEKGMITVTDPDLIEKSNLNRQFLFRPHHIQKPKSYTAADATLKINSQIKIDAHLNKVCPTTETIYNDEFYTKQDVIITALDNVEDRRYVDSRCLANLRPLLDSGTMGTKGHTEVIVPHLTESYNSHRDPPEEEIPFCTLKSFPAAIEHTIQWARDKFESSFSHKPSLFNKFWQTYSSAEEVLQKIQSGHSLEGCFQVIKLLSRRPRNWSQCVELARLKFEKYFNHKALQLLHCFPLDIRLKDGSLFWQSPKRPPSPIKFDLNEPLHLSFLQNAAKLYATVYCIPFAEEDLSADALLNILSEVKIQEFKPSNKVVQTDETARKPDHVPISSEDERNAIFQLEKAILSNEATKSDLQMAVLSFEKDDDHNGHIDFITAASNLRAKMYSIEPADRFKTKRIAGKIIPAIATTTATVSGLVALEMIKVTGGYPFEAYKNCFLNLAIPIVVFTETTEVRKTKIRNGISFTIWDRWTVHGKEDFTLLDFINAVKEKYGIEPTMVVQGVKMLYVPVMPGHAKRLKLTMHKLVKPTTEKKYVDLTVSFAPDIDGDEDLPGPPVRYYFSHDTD
Experimental: (§1) ATP and PPi titrations were run under similar condition, except ubiquitin was fixed at 4 μM. […] ATP standard curve.
(§2) Reactions were initiated with addition of 4 μM ubiquitin.

wild-type UBA6 = molecular target: T5, wild-type UBA6 (Homo sapiens, UniProt A0AVT1); experiment: UBA6 pyrophosphate exchange assay; details: wt UBA6 5 nM, 1 mM ATP, 4 μM ubiquitin, 60 minutes at 30° C.
T5 construct: His6 (N); made in house; host or cells: Sf9 insect cells (baculovirus, single infection)
T5 sequence (A0AVT1 1-1052): T4 sequence (A0AVT1 1-1052 A573D) with D573A
Experimental: as §1, §2

A573T UBA6 = molecular target: T6, A573T UBA6 (Homo sapiens, UniProt A0AVT1, A573T); experiment: UBA6 pyrophosphate exchange assay; details: A573T UBA6 5 nM, 1 mM ATP, 4 μM ubiquitin
T6 construct: His6 (N); made in house; host or cells: Sf9 insect cells (baculovirus, single infection)
T6 sequence (A0AVT1 1-1052 A573T): T4 sequence (A0AVT1 1-1052 A573D) with D573T
Experimental: as §1, §2

A171T NAEβ mutant NAE = molecular target: T7, A171T NAEβ mutant NAE (Homo sapiens, UniProt Q8TBC4, A171T); experiment: Pyrophosphate (ATP-PPi) exchange assay
T7 construct: His; made in house; host or cells: E. coli Rosetta (DE3), co-expression

G201V NAEβ mutant NAE = molecular target: T8, G201V NAEβ mutant NAE (Homo sapiens, UniProt Q8TBC4, G201V); experiment: Pyrophosphate (ATP-PPi) exchange assay; details: G201V NAE 5 nM, 1 mM ATP
T8 construct: His; made in house; host or cells: E. coli Rosetta (DE3), co-expression

Which IC50 (wt NAE; wt NAE 5 nM, 1 mM ATP, 60 minutes at 37° C.) does the source give for `Nc1ncnc2c1ncn2[C@@H]1O[C@H](COS(N)(=O)=O)[C@@H](O)[C@H]1O` [Adenosine sulfamate, adenosine sulfamate] here?
Its IC50 is 5 ± 0.2 nM.

And the kinact/KI (wt NAE; wt NAEβ, PPi-ATP exchange assay at 1 mM ATP, 95% confidence limit, read-out: kinact/Ki (rate of inactivation))?
Its kinact/KI is 25800 M⁻¹ s⁻¹.

What about the IC50 (A171D NAEβ mutant NAE) of the same compound?
Its IC50 is 34 ± 4 nM.

And the IC50 (N209K NAEβ mutant NAE; N209K NAE 5 nM, 1 mM ATP)?
Its IC50 is 120 ± 13 nM.

What about the kinact/KI (N209K NAEβ mutant NAE; N209K NAEβ, PPi-ATP exchange assay at 1 mM ATP, read-out: kinact/Ki (rate of inactivation)) of the same compound?
Its kinact/KI is 1200 M⁻¹ s⁻¹.

What about the IC50 (A573D UBA6) of the same compound?
Its IC50 is 360 ± 20 nM.

What about the IC50 (wild-type UBA6) of the same compound?
The IC50 was 42 ± 2 nM.

And the IC50 (A573T UBA6)?
Its IC50 is 27 ± 2 nM.

And the IC50 (A171T NAEβ mutant NAE)?
Its IC50 is 8 ± 9 nM.

And the kinact/KI (A171T NAEβ mutant NAE; A171T NAEβ, PPi-ATP exchange assay at 1 mM ATP, read-out: kinact/Ki (rate of inactivation))?
Its kinact/KI is 20900 M⁻¹ s⁻¹.

And the IC50 (G201V NAEβ mutant NAE)?
Its IC50 is 220 ± 6 nM.

Reference: patent US20170107579A1, “E1 ENZYME MUTANTS AND USES THEREOF” (Millennium Pharmaceuticals, Inc., priority 2011, published 2017)
